# Laboratory results reported in paper PMC9019904, “AD Informer Set: Chemical tools to facilitate Alzheimer's disease drug discovery” (Alzheimer's & Dementia : Translational Research & Clinical …, 2022).
# Test: Kinetic solubility in aqueous buffer pH 7.4 by total chemiluminescent nitrogen determination (Analiza)
smiles,measurement,value
C=CC[N+]1([C@H]2C[C@H]3[C@@H]4CC[C@H]5C[C@H](O)[C@@H](N6CCOCC6)C[C@]5(C)[C@H]4CC[C@]3(C)[C@H]2OC(C)=O)CCCC1 [Rocuronium Bromide],Kinetic solubility,131.6 µM
